Reference: PubChem BioAssay AID652163 (Broad Institute, 2013)
This is a selection; strong and weak results do not stand in their true shares. Activity calls are given as the source filed them.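 How the source made its calls: active means mean inhibition of at least 70% across replicates, with every replicate also reaching that level; inconclusive means mean inhibition reaches 70% but some replicates fall short; inactive means mean inhibition below 70%.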

Protein sequences, listed by entry. Tags and fused reporters are not part of them.
UniProt P26447, whole entry: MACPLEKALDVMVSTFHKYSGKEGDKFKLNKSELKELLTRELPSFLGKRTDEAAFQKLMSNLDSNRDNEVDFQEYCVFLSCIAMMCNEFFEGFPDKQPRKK

target: Protein S100-A4 (Homo sapiens) (UniProt P26447); assay: human S100A4 protein-peptide interaction blockers – biochemical, fluorescence polarization, TAMRA-MyoIIA peptide, primary screen (AID 652163); conditions: at 10.7 µM, hits give high values

**Q.** `CCC(=O)N(c1ccccc1)C1(COC)CCN(CCc2cccs2)CC1` was tested. Which inhibition did it give?
**A.** inactive: -1.32%

**Q.** Which inhibition does the source give for `CCC(=O)N(c1ccccc1)C1(COC)CCN(CCn2nnn(CC)c2=O)CC1` here?
**A.** inactive: -1.33%
